Assays:
Assay type in all cases: cell-based
SYK(WT)-NL = molecular target: T1, SYK(WT)-NL (Homo sapiens, UniProt P43405); test: NanoBRET assay in digitonin permeabilized HEK293 cells, SYK(WT)-NL; conditions: fixed concentration of tracer 8, average ± SEM, read-out: IC50, SYK(variant)-NL WT
T1 construct: SYK tracers enable BRET with full-length SYK(WT) after digitonin permeabilization; host or cells: HEK293

SYK(S550Y)-NL = SYK(S550Y)-NL (Homo sapiens, UniProt P43405, S550Y); test: NanoBRET assay in digitonin permeabilized HEK293 cells, SYK(S550Y)-NL; parameters: host or cells: HEK293; conditions: fixed concentration of tracer 8, average ± SEM, read-out: IC50, SYK(variant)-NL S550Y
SYK(S550F)-NL = SYK(S550F)-NL (Homo sapiens, UniProt P43405, S550F); test: NanoBRET assay in digitonin permeabilized HEK293 cells, SYK(S550F)-NL; parameters: host or cells: HEK293; conditions: fixed concentration of tracer 8, average ± SEM, read-out: IC50, SYK(variant)-NL S550F

rATP
IC50 (SYK(WT)-NL): 16.8 ± 0.4 µM
IC50 (SYK(S550Y)-NL): 25.6 ± 1.9 µM
IC50 (SYK(S550F)-NL): 69.8 ± 1 µM

— paper PMC13089524, “Development of SYK NanoBRET cellular target engagement assays for gain–of–function variants” (Frontiers in chemical biology, 2024)
